From patent US20040076581A1, “Use of neuropeptide y1 receptor binding compounds in the treatment and diagnosis of cancer” (priority 2000, published 2004)

The chains behind the UniProt entries cited, without tags or fusion partners.
UniProt P49146, whole entry: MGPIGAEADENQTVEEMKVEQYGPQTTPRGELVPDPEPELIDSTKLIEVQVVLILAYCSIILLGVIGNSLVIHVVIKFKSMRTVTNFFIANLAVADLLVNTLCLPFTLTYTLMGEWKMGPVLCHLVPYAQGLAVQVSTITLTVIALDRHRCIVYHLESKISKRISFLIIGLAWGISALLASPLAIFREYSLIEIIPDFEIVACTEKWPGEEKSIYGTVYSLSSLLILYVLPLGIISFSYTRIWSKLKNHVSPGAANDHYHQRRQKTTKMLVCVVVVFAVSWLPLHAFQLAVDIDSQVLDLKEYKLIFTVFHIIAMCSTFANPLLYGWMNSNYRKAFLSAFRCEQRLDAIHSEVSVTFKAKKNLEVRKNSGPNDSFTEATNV

Target: T1, Y2 receptors in normal breast (Homo sapiens, UniProt P49146)
T1 construct: Twenty-μm thick cryostat sections of the tissue samples were processed for NPY receptor autoradiography; from tissue; host or cells: human normal breast tissue adjacent to carcinoma, cryostat sections
Assay: NPY receptor autoradiography, displacement of 125I-PYY in adjacent normal breast sections
Assay type: binding
Conditions: FIG. 1
Experimental: For autoradiography, tissue sections were mounted on precleaned microscope slides and stored at −20° C. for at least 3 days to improve adhesion of the tissue to the slide. […] The slides were incubated at room temperature with the radioligand for 120 min.
In selected cases, displacements with a single concentration (25 nM) of each of the above mentioned peptides were performed.
On completion of the incubation, the slides were washed four times for 5 min each in ice-cold preincubation solution, pH 7.4. They were rinsed twice in ice-cold distilled water, and then dried under a stream of cold air at 4° C., apposed to ^3H-Hyperfilms and exposed for 7 days in x-ray cassettes.
Tissue standards for iodinated compounds (Amersham) were used for this purpose.

displacement of 125I-PYY binding in breast (single concentration 25 nM of unlabeled peptide, adjacent normal breast): Complete displacement | affinity in surrounding breast (rank order of potency) (surrounding normal breast expressing predominantly Y2): high affinity
Substance: PYY(3-36)
